The assay addresses PD-1 (Homo sapiens (Human)) (UniProt Q15116). Nature of the assay: flow cytometry of the TCR-T cells with 500 µg/mL fluorescently labeled antibody in PBS. (In general: A flow cytometer gives signals particle by particle.)

Experimental findings from US20200102534A1 are described below.

The substance monoclonal antibody drug Keytruda displayed a percent of cells blocked of 79.1%.
